According to PMC6447637:

How the values were obtained:
[1] = target: NaV1.4 CTerm Long (residues 1599-1764) (H. sapiens) (UniProt P35499); experiment: ITC; CaM species in the syringe, NaV CTerm in the cell; Ca2+-free: 20 mM MOPS, 150 mM NaCl, 1 mM MgCl2, 50 µM EGTA; VP-ITC; fitted to a single binding site per monomer, error of the fit; one replicate
[2] = target: NaV1.4 CTerm Long (residues 1599-1764) (H. sapiens) (UniProt P35499); experiment: ITC; CaM species in the syringe, NaV CTerm in the cell; Ca2+-saturating: 20 mM MOPS, 150 mM NaCl, 1 mM MgCl2, 50 µM EGTA with 1 mM CaCl2; VP-ITC; fitted to a single binding site per monomer, error of the fit; one replicate

Row | stoichiometry N [1] | stoichiometry N [2] | Substance
1 | 0.993 Sites | 1.01 Sites | CaM12 (D20A, D56A; N lobe Ca2+ binding disabled) (from UniProt P0DP30 1-149) (natural protein)
2 | 1 Sites | 0.996 Sites | CaM34 (D93A, D129A; C lobe Ca2+ binding disabled) (from UniProt P0DP30 1-149) (natural protein)
3 | 0.971 Sites | 1.01 Sites | calmodulin (full-length mammalian, CALM2) (from UniProt P0DP30 1-149) (natural protein)
